# From PubChem
# Most compounds without a hit are left out; they make up all but 2.3% or so of the library.
# miR-21 reporter: raises the signal of a miR-21 reporter | Potency, µM (highest dose often 38.3 µM) | HeLa miR-21 FLuc reporter, luciferase, 48 h | 340,000 tested, under 10 active; active = well fitted rising curve with a large enough effect; inconclusive = small, poorly fitted or top-dose-only effect; inactive = no such curve, though single readings can be large or run the other way;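 further: miR-21 action dims this reporter so a rising signal means less miR-21 action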
#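 Luminescence from a firefly luciferase reporter carrying a miR-21 binding site downstream, stably expressed under a CMV promoter in HeLa cells that make miR-21 endogenously, reports miRNA modulation after 48 h compound exposure up to approximately 40uM final.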
# A549 tox-1: A549 cytotoxicity, counter-screen for Nrf2 inhibitors. Potency, µM (doses to about 46 µM), most hits filed as inhibitors. 0.16% of 390,000 active. AID 504648. A549 ARE-Fluc cells, CellTiter-Fluor viability, 18-24 h
#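 Cytotoxicity counterscreen: CellTiter-Fluor fluorescence was measured in A549 ARE_Fluc cells after 18-24 h of compound exposure in a concentration series. The subsequent BugLite luminescent read reports ARE-luciferase activity.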
# Mito fusion yeast: inhibitors of mitochondrial division or activators of mitochondrial fusion; S. cerevisiae fusion-defective mutant growth rescue, CellTiterGlo 48 h; Potency, µM (series often up to 46.1 µM), hits mostly activators; 0.23% of 320,000 active; note: nearly all actives have a fitted effect of over 45% in size
#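 Luminescent cell viability in 1536-well qHTS format served as the measure of rescued growth in ts fusion-mutant S. cerevisiae cultured on non-fermentable YPEG for 48 hours at 37C.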
# Nrf2 block: Nrf2 pathway inhibition. A549 ARE-Fluc reporter, luciferase luminescence, 18-24 h. AID 504444. Potency, µM (series often up to 46 µM), most hits filed as inhibitors. 2.1% of 360,000 active; note: nearly all actives have a fitted effect of over 60% in size
#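 A549 ARE_Fluc cells, 5000/well, 5% FBS OPTI-MEM; compounds in dose-response, 18-24 h at 37 °C/5% CO2; CellTiter-Fluor viability read (Ex 405/Em 525), then BugLite luciferase luminescence = Nrf2 activity.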
# Nrf2 ARE act: Nrf2 pathway activation; AREc32 ARE-luciferase reporter (MCF7-derived line), luminescence, 24 h; 0.31% of 410,000 active; Potency, µM (top dose mostly 46.1 µM), actives largely listed as activators; note: nearly all actives have a fitted effect of over 65% in size
#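 AREc32 cells carrying an ARE-driven firefly luciferase, 1000 cells/well in OPTI-MEM with 5% FBS, dosed after overnight attachment and incubated 24 hr at 37 deg C. Steady-Glo luminescence read after 30 min at RT.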
# FLuc counter 3: blocks purified firefly luciferase in Nrf2 counterscreen. Potency, µM (series often up to 57.5 µM), most hits filed as inhibitors. shares compounds with Nrf2 block. purified firefly luciferase, luminescence inhibition. 4% of 1,400 active; note: nearly all actives have a fitted effect of over 65% in size
# A549 tox-2: A549 cytotoxicity, Nrf2 inhibitor counterscreen. shares compounds with Nrf2 block. A549 ARE-Fluc cells, cytotoxicity counterscreen. Potency, µM (titrated, usually from 46.1 µM), actives largely listed as inhibitors. 2% of 1,400 active;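 note: cells exposed to compounds for 18 to 24 hours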
# ARE-Fluc inh: Nrf2 inhibition confirmed, A549 ARE-luciferase; shares compounds with Nrf2 block; A549 ARE-firefly luciferase reporter, luminescence; Potency, µM (series often up to 46.1 µM), most hits filed as inhibitors; 74% of 1,400 active; AID 720524; note: nearly all actives have a fitted effect of over 65% in size
# A number is an active result; . = inactive; ? = inconclusive; / = not tested or not shown; ! = not confirmed by another sample. Unless noted, calls come from the whole dose curve; as a rule, active = well fitted curve in the direction sought with a large enough effect; inconclusive = small, poorly fitted or top-dose-only effect, or another doubt; inactive = no such curve, though single readings can be large; an effect the other way counts as inactive or inconclusive.
SMILES,miR-21 reporter,A549 tox-1,Mito fusion yeast,Nrf2 block,Nrf2 ARE act,FLuc counter 3,A549 tox-2,ARE-Fluc inh
O=[N+]([O-])c1ccc(S(=O)(=O)CC2CSc3nc4ccccc4n32)cc1 (stereo unspecified),.,.,.,5.17µM,.,.,?,2.06µM
CC(=NNC(=S)N1CCCCC1)c1ccccn1,/,/,/,/,.,/,/,/
CC(=NNC(=S)N1CC2CCC(CC2)C1)c1ccncn1,/,16.4µM,/,1.3µM,.,10.7µM,?,0.366µM
COc1ccc(CCNC(=O)Cn2nc(C)n3c(cc4cc(F)ccc43)c2=O)cc1OC,.,.,/,?,.,/,/,/
O=C(NCc1cccs1)c1nc2c(nnn2Cc2ccccc2Cl)c(=O)[nH]1,?,?,.,5.8µM,.,?,?,2.06µM
Cc1c(Cl)cccc1NC(=O)CSc1ncc2c(n1)-c1ccccc1N(C)S2(=O)=O,.,.,/,?,.,/,/,/
OCC1OC(n2cnc3c(NCc4ccco4)ncnc32)C(O)C1O (stereo unspecified),/,?,/,7.31µM!,?,.,.,4.11µM
C=CCNc1ncnc2c1ncn2C1OC(CO)C(O)C1O (stereo unspecified),.,.,.,?,.,/,/,/
COc1ccc(Nc2ncc3c(n2)CCN(Cc2ccccc2C)C3)c(OC)c1,.,.,/,/,.,/,/,/
COc1cc2c(NC3CCN(C(C)C)CC3)nc(N3CCCN(C)CC3)nc2cc1OCCCN1CCCC1,/,/,/,/,/,.,?,1.46µM
COc1cc2nc(N3CCN(C(=O)C4CCCO4)CC3)nc(N)c2cc1OC (stereo unspecified),.,.,.,?,.,/,/,/
COc1cc2c(NC3CCN(C(C)C)CC3)nc(N3CCCN(C)CC3)nc2cc1OCCOCCN(C)C,/,/,/,/,/,.,.,6.51µM
C1=C2C[N+]3(CCCC3)CC2Cc2ccc3ccccc3c21 (stereo unspecified),.,.,.,2.06µM,.,.,.,7.31µM
CC(NNC(=S)N1CCN(c2ccccn2)CC1)c1nccc2ccccc12 (stereo unspecified),/,?,/,5.8µM,.,.,?,?
CCCC(=O)Nc1nc(-c2ccc3c(c2)CCN3S(C)(=O)=O)cs1,.,.,.,8.2µM,.,?,.,?
CCOC(=O)c1[nH]c2ccccc2c1NC(=O)c1ccccc1OCC,?,.,/,?,.,/,/,/
Cc1ccc(S(=O)(=O)Nc2ncnc3sc(C)c(C)c23)cc1,/,.,.,?,.,/,/,/
NS(=O)(=O)c1ccc(CCNc2ncnc3sccc23)cc1,.,.,.,1.64µM,.,.,.,?
Cc1sc2ncnc(NCCc3ccc(S(N)(=O)=O)cc3)c2c1C,.,.,.,2.31µM,.,.,.,6.51µM
Cc1ccc(C(=O)NCCc2csc(-c3cccc(F)c3)n2)cc1C,.,.,/,/,.,/,/,/
Cc1ccccc1CN1C(=O)c2ccccc2S(=O)c2ccc(C(=O)N3CCOCC3)cc21 (stereo unspecified),.,.,/,.,.,/,/,/
CC(C)(C)c1cc(CCC(=O)NNC(=S)NC(=O)c2ccccc2)cc(C(C)(C)C)c1O,.,?,.,2.91µM,.,.,.,14.6µM
Cc1cc2oc(=O)cc(CSc3nnc(-c4cccs4)o3)c2cc1C(C)C,.,?,.,8.2µM,.,.,.,?
Cc1cc2oc(=O)cc(CSc3nnc(C)n3N)c2cc1C(C)C,.,.,.,/,.,/,/,/
COc1cccc(CN(Cc2ccco2)c2cnc(S(C)(=O)=O)nc2C(=O)Nc2cccc(Cl)c2C)c1,.,.,/,.,.,/,/,/
SMILES,miR-21 reporter,A549 tox-1,Mito fusion yeast,Nrf2 block,Nrf2 ARE act,FLuc counter 3,A549 tox-2,ARE-Fluc inh
CC[n+]1c(/C=C/N(C)c2ccccc2)oc2ccc(F)cc21,?,.,.,6.51µM,.,.,.,5.8µM
COc1cc(C(=O)NCc2cccnc2)ccc1OCC(=O)Nc1cccc(C(F)(F)F)c1,/,.,.,6.51µM,.,.,.,16.4µM
CCOc1ccc(NC(=O)COc2ccc(C(=O)NCc3cccnc3)cc2OC)cc1,/,.,.,.,.,/,/,/
Cc1sc2ncnc(NC3CCN(Cc4ccccc4)CC3)c2c1C,.,?,.,4.61µM,.,.,.,5.8µM
c1ccc(CN2CCC(Nc3ncnc4sccc34)CC2)cc1,.,.,.,.,.,/,/,/
COc1ccc(C)cc1NC(=O)C1CCC(CNS(=O)(=O)c2ccc3c(c2)CCCC(=O)N3)CC1 (stereo unspecified),.,?,/,7.31µM,.,.,.,7.31µM
Cc1cc(C(=O)CSc2ncnc3ccccc23)c(C)n1C1CC1,/,.,.,.,.,/,/,/
Cc1cc(-n2c(C)cc(C(=O)CSc3ncnc4ccccc34)c2C)no1,.,?,.,4.61µM,.,?,.,16.4µM
CCc1ccc2nc(N3CCN(C(=O)c4ccccc4)CC3)sc2c1,.,.,/,/,.,/,/,/
CCN(Cc1ccccc1)S(=O)(=O)c1ccc(C(=O)N2CCN(c3nc4ccccc4s3)CC2)cc1,.,.,.,1.84µM,.,.,.,7.31µM
O=C(CSc1nnc(Cn2nnc3ccccc32)o1)Nc1cccc(Cl)c1,.,.,.,.,.,/,/,/
O=C(CSc1nnc(Cn2nnc3ccccc32)o1)N(Cc1ccc(Cl)cc1)c1ccccc1,.,?,.,5.8µM,.,.,.,9.2µM
CCN1CCS/C1=C\C=C\C1=[N+](CC)CCS1,?,?,.,1.64µM,.,.,?,6.51µM
CC(C)(C)c1ccc(-n2ncc3c2CCCC3NC(=O)C2(C(N)=O)CC2)cc1 (stereo unspecified),.,.,?,1.3µM,.,.,.,/
CCOC(=O)c1cc(-c2ccccc2)n(CCC(=O)NC2CCCCC2)c1C,.,.,/,/,.,/,/,/
O=C(c1cc(S(=O)(=O)N2CCN(c3ccccc3)CC2)ccc1Cl)N1CCCC(C(F)(F)F)C1 (stereo unspecified),/,.,?,4.61µM,.,.,.,5.17µM
Cn1c(=O)c2c(nc(SCC(=O)Nc3ccccc3)n2Cc2ccccc2F)n(C)c1=O,.,.,/,.,.,/,/,/
Cn1c(=O)c2c(nc(SCC(=O)Nc3ccc(OC(F)(F)F)cc3)n2Cc2cccc(C(F)(F)F)c2)n(C)c1=O,.,?,/,7.31µM,.,.,?,14.6µM
CC(=O)c1ccc(NC(=O)Cn2nc(N3CCN(c4ccccc4)CC3)ccc2=O)cc1,.,.,/,?,.,/,/,/
O=C(Nc1ccc(F)cc1)c1ccc(Cn2nc(N3CCN(c4ccccc4)CC3)ccc2=O)o1,?,?,/,8.2µM,.,.,.,2.59µM
CCOc1cc(S(=O)(=O)NCCc2c(C)[nH]c3ccc(C)cc23)ccc1F,.,.,.,/,.,/,/,/
